Only a part is listed here, and it is no random draw. Activity calls are given as the source filed them.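 The calls were made as follows: active = mean replicate inhibition above about 25%, with every replicate also reaching it (limit read from the data, passing the limit was not always enough); inconclusive = only one of those two criteria met; inactive = neither criterion met.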
target: Protein disulfide-isomerase A6 (Homo sapiens) (UniProt Q15084); assay: inhibitors of ERp5-driven insulin aggregation, primary screen, biochemical, turbidity, absorbance 650 nm, single point (AID 651711); conditions: 90 min, at 9.99 µM, active compounds read high

Protein sequences, listed by entry. Tags and fused reporters are not part of them. Lines headed by an entry give the natural chain unless they say otherwise; changes in a name come on top.
UniProt Q15084: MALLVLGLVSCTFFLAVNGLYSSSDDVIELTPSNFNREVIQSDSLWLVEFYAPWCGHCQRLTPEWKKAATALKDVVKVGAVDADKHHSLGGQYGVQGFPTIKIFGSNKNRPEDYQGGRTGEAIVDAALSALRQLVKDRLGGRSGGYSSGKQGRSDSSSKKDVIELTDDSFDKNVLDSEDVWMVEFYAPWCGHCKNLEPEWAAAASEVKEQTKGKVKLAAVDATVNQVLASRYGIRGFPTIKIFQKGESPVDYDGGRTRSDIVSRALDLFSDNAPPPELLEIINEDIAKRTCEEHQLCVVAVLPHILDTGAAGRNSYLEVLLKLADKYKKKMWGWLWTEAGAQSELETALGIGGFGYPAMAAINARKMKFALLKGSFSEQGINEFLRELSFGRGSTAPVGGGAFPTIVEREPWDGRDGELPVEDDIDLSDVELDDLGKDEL

Row | SMILES | inhibition
1 | O=P1(N(CCCl)CCCl)NCCC(C(F)(F)F)O1 (stereo not drawn) | inactive: -6.34%
2 | CC(C)(C)C(=O)NC(Sc1ncccn1)C(Cl)(Cl)Cl (stereo not drawn) | inactive: 5.66%
3 | CCOP(=O)(Nc1ccc(C)cn1)OCC | inactive: -1.03%
4 | CN(CCCl)Cc1cc(Cl)c(NC2=NCCN2)c(Cl)c1 | inactive: -6.77%
5 | CCC1=CC2Cc3nc4ccc(Cl)cc4c(N)c3C(C1)C2 (stereo not drawn) | inactive: -3.53%
6 | CCOP(=O)(NC(=NC(C)c1ccccc1)NC(C)c1ccccc1)OCC (stereo not drawn) | inactive: 2.79%
7 | CC(C)/C=N\N=C(\N)N[N+](=O)[O-] | inactive: 3.35%
8 | CN(C(=O)Cc1ccc(Cl)c(Cl)c1)[C@@H]1CCCC[C@H]1N1CCCC1 | inactive: 3.99%
9 | CN(C(=O)Cc1ccc(Cl)c(Cl)c1)C1CCCC[C@@H]1N1CCCC1 (stereo partly drawn) | inactive: -1.53%
10 | COc1ccccc1CNC(=O)COC(=O)C(O)(c1ccccc1)c1ccccc1 | inactive: 2.57%
11 | O=C(/C=C/c1ccccc1)OC1CN2CCC1CC2 (stereo not drawn) | inactive: 4.62%
12 | CCCC1OP(=O)(Nc2ccccc2)OCC1CC (stereo not drawn) | inactive: 2.31%
13 | CN(C)C1(CNC(=O)c2ccc(S(C)(=O)=O)cc2)CCCCC1 | inactive: -3.84%
14 | CC1CCC(C(C)C)C(OP(=O)(Nc2ccccn2)c2ccccc2)C1 (stereo not drawn) | inactive: 4.18%
15 | Cc1ccc(C(=O)OC2CN3CCC2CC3)cc1 (stereo not drawn) | inactive: -1.5%
16 | O=[As](O)(c1cccs1)c1cccs1 | inactive: 5.01%
17 | NS(=O)(=O)c1cccc(NC(=O)COC(=O)C(O)(c2ccccc2)c2ccccc2)c1 | inactive: 1.29%
18 | Nc1cccc([As](=O)(O)c2ccccc2)c1 | inactive: 0.535%
19 | Cc1ccc(S(=O)(=O)N(CCCN)CCCc2c(C)nc(N)[nH]c2=O)cc1 | inactive: -1.3%
20 | Nc1ccccc1[As](=O)(O)c1ccccc1 | inactive: 2.84%
21 | O=C(O)COc1ccc([As](=O)(O)O)cc1[N+](=O)[O-] | inactive: -3.24%
22 | CCOP1(=S)c2c(C)nn(CCC#N)c2N=C(c2ccccc2F)N1C (stereo not drawn) | inactive: 3.61%
23 | O=P(Nc1nccs1)(Oc1ccccc1)Oc1ccccc1 | inactive: 0.474%
24 | CN(C)C(=O)c1cc([N+](=O)[O-])cc2c1-c1c(cc([N+](=O)[O-])cc1[N+](=O)[O-])C2=O | inactive: 6.31%
25 | CN(C(=O)Cc1ccc(Cl)c(Cl)c1)[C@H]1CC[C@@]2(CCCO2)C[C@@H]1N1CCCC1 | inactive: 4.28%

Row | SMILES | inhibition
26 | N#CCCN(C(=O)COC(=O)C(O)(c1ccccc1)c1ccccc1)c1ccc(F)cc1 | inactive: 0.243%
27 | CCOP1(=S)c2c(C)nn(CCC#N)c2N=C(c2ccc(F)cc2)N1C (stereo not drawn) | inactive: 5.81%
28 | CN(C(=O)Cc1ccccc1)[C@@H]1CC[C@]2(CCCO2)C[C@H]1N1CCCC1 | inactive: 1.47%
29 | NC(=O)Nc1ccc([As](=O)(O)O)cc1 | inactive: -3.54%
30 | O=[As](O)(c1cccc(O)c1)c1cccc(O)c1 | inactive: -8.26%
31 | O=[As](O)(O)c1cccnc1 | inactive: 3.69%
32 | COc1cc(C(=O)NCC2(N3CCOCC3)CCCCC2)cc(Cl)c1OC(C)C | inactive: -3.33%
33 | CS(=O)(=O)c1ccc(Cl)c(NC(=O)COC(=O)C(O)(c2ccccc2)c2ccccc2)c1 | inactive: 2.83%
34 | O=C(OC1CN2CCC1CC2)c1ccc(Cl)cc1 (stereo not drawn) | inactive: -0.394%
35 | CCOP(=O)(Nc1cccc2ccccc12)OCC | inactive: 3.3%
36 | CCCOP(=S)(Nc1nc(N)cc(=O)[nH]1)OCCC | inactive: 0.165%
37 | Nc1cccc2c([As](=O)(O)O)cccc12 | inactive: 1.72%
38 | Cc1ccc(NCCc2c([N+](=O)[O-])cc([N+](=O)[O-])cc2[N+](=O)[O-])cc1 | inactive: 1.41%
39 | COc1ccc2nc(NP(=O)(c3ccccc3)c3ccccc3)sc2c1 | inactive: 0.451%
40 | COc1cc(I)ccc1[As](=O)(O)O | inactive: -3.04%
41 | COc1ccc(CN2/C(=N\P(=O)(Oc3ccccc3)Oc3ccccc3)Cc3ccccc3C2C2CC2)cc1 (stereo not drawn) | inactive: -1.46%
42 | O=P1(N(CCCl)CCCl)Nc2ccccc2N1 | inactive: -2.35%
43 | O=P1(N(CCCl)CCCl)OCCCN1CCCl (stereo not drawn) | inactive: 1.62%
44 | Cc1cc(=O)[nH]c(N[N+](=O)[O-])n1 | inactive: 4.58%
45 | Cc1c2c(nc3ccccc13)SC(C(Cl)Cl)C2 (stereo not drawn) | inactive: 6.42%
46 | COc1ccc(N/C(=N/P(=O)(N2CCOCC2)N2CCOCC2)N2CCOCC2)cc1 | inactive: 0.0365%
47 | O=[N+]([O-])c1cc(Oc2ccc([N+](=O)[O-])cc2C(F)(F)F)cc([N+](=O)[O-])c1 | inactive: -6.6%
48 | Cc1ccc2nc3c(c(C)c2c1)CC(C(Cl)Cl)S3 (stereo not drawn) | inactive: -1.57%
49 | [N-]=[N+]=NC1CCCCC1NC(=O)c1cc([N+](=O)[O-])cc([N+](=O)[O-])c1 (stereo not drawn) | inactive: 9.92%
50 | Cc1ccc(OP(=O)(Nc2ccc([N+](=O)[O-])cn2)Oc2ccc(C)cc2)cc1 | inactive: -1.32%

Row | SMILES | inhibition
51 | O=[As](O)(c1ccc(O)cc1)c1ccccc1O | inactive: 5.64%
52 | C[As](=O)(O)c1cccc(C(=O)O)c1 | inactive: 0.347%
53 | O=[N+]([O-])c1ccc(-c2cc([N+](=O)[O-])c(O)c([N+](=O)[O-])c2)cc1 | inactive: 2.08%
54 | COc1cc(C(=O)NCC2(N3CCOCC3)CCCCC2)ccc1OCC(C)C | inactive: 4.14%
55 | CC(C)NC(=O)NP(=O)(Oc1ccccc1)Oc1ccccc1 | inactive: -4.63%
56 | O=C(OC1CN2CCC1CC2)c1cccc2[nH]cnc12 (stereo not drawn) | inactive: 4.78%
57 | COC(=O)C1(C)COP(=O)(N2CCCCCC2)OC1 (stereo not drawn) | inactive: 1.82%
58 | CC(C)c1ccc(OP(=O)(Nc2ccccn2)Oc2ccccc2F)cc1 (stereo not drawn) | inactive: -2.07%
59 | CCCCOc1ccc(C(=O)NCC2(N3CCCCC3)CCCCC2)cc1OC | inactive: -0.32%
60 | COP(=O)(OC)N1CC1c1ccccc1 (stereo not drawn) | inactive: 3.15%
61 | CC1CCNP(=O)(N(CCCl)CCCl)O1 (stereo not drawn) | inactive: 4.51%
62 | CCOC(=O)Nc1ccc([As](=O)(O)O)c(O)c1 | inactive: 2.58%
63 | O=C(O)C(O)c1ccc(N(CCCl)CCCl)cc1 (stereo not drawn) | inactive: 12.5%
64 | O=[N+]([O-])c1ccc(Nc2ccc(Oc3ccc([N+](=O)[O-])cc3[N+](=O)[O-])cc2)c([N+](=O)[O-])c1 | inactive: 0.113%
65 | O=P(Nc1ccccn1)(c1cccc2ccccc12)c1cccc2ccccc12 | inactive: -3.9%
66 | Cc1cc(SC(NC=O)C(Cl)(Cl)Cl)ncn1 (stereo not drawn) | inactive: 5.94%
67 | CCOC(=O)Nc1cccc([As](=O)(O)O)c1 | inactive: -2.86%
68 | O=C(Nc1ccncc1[N+](=O)[O-])c1ccc([N+](=O)[O-])cc1[N+](=O)[O-] | inactive: -1.52%
69 | O=C(O)C(=O)c1ccc(N(CCCl)CCCl)cc1 | inactive: -0.464%
70 | COP1(=S)c2c(C)nn(CCC#N)c2N=C(c2ccc(F)cc2)N1C (stereo not drawn) | inactive: 2.95%
71 | COC(=O)C1(C)COP(=O)(N2CCCC2)OC1 (stereo not drawn) | inactive: -3.02%
72 | CCOC(=O)c1ccc(NC(=O)C(C)(CCl)SC)cc1 (stereo not drawn) | inactive: 2.77%
73 | O=C(OC1CN2CCC1CC2)c1cccc([N+](=O)[O-])c1 (stereo not drawn) | inactive: 3.07%
74 | Cc1ccc(NP(=O)(Oc2ccccc2)Oc2ccccc2)nc1 | inactive: 1.02%
75 | O=[N+]([O-])c1cc([N+](=O)[O-])c(CCNc2ccccc2)c([N+](=O)[O-])c1 | inactive: 1.19%

Row | SMILES | inhibition
76 | COc1ccc(C2=NCC(CBr)S2)cc1 (stereo not drawn) | inactive: -3.51%
77 | CC(C)c1nc(Nc2ccccc2)n(P(=O)(N(C)C)N(C)C)n1 | inactive: -13.7%
78 | CC(C)=N/N=C(\N)N[N+](=O)[O-] | inactive: 1.48%
79 | c1cc(-c2nn[nH]n2)ccc1-c1nn[nH]n1 | inactive: -6.03%
80 | Nc1ccc([As](=O)(O)c2ccc(N)cc2)cc1 | inactive: 0.798%
81 | C[N+]1=C2C=CC=CC=C2SC12C([N+](=O)[O-])=CC([N+](=O)[O-])=C[C-]2[N+](=O)[O-] (stereo not drawn) | inactive: -16.6%
82 | CCN(/C(=N/P(=O)(N1CCOCC1)N1CCOCC1)N1CCOCC1)c1ccc(OC)cc1 | inactive: -1.34%
83 | O=C(Nc1cc([As](=O)(O)O)ccc1O)c1ccccc1 | inactive: -1.14%
84 | O=P1(N(CCCl)CCCl)OCCCS1 (stereo not drawn) | inactive: 2.02%
85 | COC(=O)C1(C)COP(=O)(Nc2ccccc2)OC1 (stereo not drawn) | inactive: -3.12%
86 | O=[N+]([O-])c1cccc(NC2=NCC(CBr)S2)c1 (stereo not drawn) | inactive: -0.711%
87 | O=C(O)CNc1ccc([As](=O)(O)O)cc1 | inactive: -0.552%
88 | CC(C)(C)C(=O)NC(Sc1ccncn1)C(Cl)(Cl)Cl (stereo not drawn) | inactive: -5.32%
89 | O=[N+]([O-])c1ncn(CCn2ncnc2[N+](=O)[O-])n1 | inactive: 0.697%
90 | Cc1ccc(NP(=O)(Oc2ccccc2F)Oc2ccccc2F)nc1 | inactive: 3.06%
91 | CN(C(=O)Cc1ccc(Cl)c(Cl)c1)[C@H]1CCCC[C@@H]1N1CCCC1 | inactive: -0.384%
92 | CCn1c(=O)n(C2CCN(CC3CCCCCCC3)C[C@H]2CO)c2ccccc21 (stereo partly drawn) | inactive: 2.77%
93 | CC(=O)Nc1ccc([As](=O)(O)O)cc1 | inactive: 4.86%
94 | O=C(O)c1ccccc1[As](=O)(O)O | inactive: 6.17%
95 | CCCC1OP(N)(=O)OCC1CC (stereo not drawn) | inactive: -4.34%
96 | O=P(Nc1nc2ccc(Cl)cc2s1)(c1ccccc1)c1ccccc1 | inactive: -1.31%
97 | CN(C)P(=O)(N(C)C)n1c(Nc2ccccc2)nnc1-c1ccccc1 | inactive: 0.261%
98 | CN(C(=O)Cc1ccccc1)C1CC[C@@]2(CCCO2)C[C@@H]1N1CCCC1 (stereo partly drawn) | inactive: 11.9%
